The source of these data is PubChem BioAssay AID504408 (Broad Institute, 2011).

This is a selection; strong and weak results do not stand in their true shares. Some of these compounds have results that are not shown, active ones among them. Activity calls are given as the source filed them.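 How the source made its calls: active means mean replicate activation of at least 50% with a set share of replicates each reaching 50%; inconclusive means only one of those two conditions met; inactive means mean below 50% and too few replicates reaching it.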

The nature of the experiment: HSF-1 response element luciferase induction – NIH3T3-HGL cells, MG132 stress, luminescence, single point, primary screen (AID 504408).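 Further: 0% = median of the neutral control wells and 100% = twice that signal.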 The conditions noted are these: NIH3T3-HGL HSF-1 luciferase reporter, MG132, 8 h; at 9 µM; hits give high values; 100% = twice DMSO control signal.
In the case of `CN(C)C1CCCC1OC(=O)C(O)(c1ccccc1)c1ccccc1` (centres undefined), the activation is inactive: 2.27%. The figure for `CN(C)c1ccc(C(=O)NCC2(N(C)C)CCCCC2)cc1` is inactive: -10.8%; for `Cc1ccccc1C(=O)NCC1(N2CCCCC2)CCCCC1` it is inactive: 11.7%; for `O=C(NCC1(N2CCCCC2)CCCCC1)c1cccc(Br)c1` it is inactive: 3.1%. The figure for `Cc1cc(C(=O)NCC2(N3CCCCC3)CCCCC2)ccc1[N+](=O)[O-]` is inactive: -24.7%; for `CCN1CCCC(OC(=O)C2(O)c3ccccc3C=Cc3ccccc32)C1` (centres undefined) it is inactive: -40%. Regarding `COc1ccc(C(=O)NCC2(N(C)C)CCCCC2)cc1`, the activation is inactive: -7.47%.

On to `O=C(NCC1(N2CCCCC2)CCCCC1)c1cc(F)c(F)cc1Cl`, for which the activation was inactive: 8.95%. The figure for `C=CCN1CCN(CCOC(=O)C(O)(c2ccccc2)c2ccccc2)CC1` is inactive: 29.4%. `CN1[C@@H]2CC[C@H]1CC(OC(=O)C(O)(c1ccccc1)c1ccccc1)C2` (some centres undefined): the activation is inactive: -12.1%. Take `O=C(NCC1(N2CCCCC2)CCCCC1)c1cc([N+](=O)[O-])ccc1Cl`: the activation is inactive: 23.4%. As for `Cc1ccc(C(=O)NCC2(N3CCCCC3)CCCCC2)cc1`, the figure is inactive: -3.93%; as for `CC(C)N1C(=O)CC2(CCN(CCOC(=O)C(O)(c3ccccc3)c3ccccc3)CC2)C1=O`, inactive: 5.07%; as for `COc1cc(SC)ccc1C(=O)NCC1(N(C)C)CCCCC1`, inactive: -16.5%. The figure for `CCN(CC)CC(C)C(C)OC(=O)C(O)(c1ccccc1)c1ccccc1` (centres undefined) is inactive: -7.92%; for `O=C(OC1CN2CCC1CC2)C(CO)(c1ccccc1)c1ccccc1` (centres undefined) it is inactive: -4.21%. On to `CN(C)c1cccc(C(=O)NCC2(N(C)C)CCCCC2)c1`, for which the activation is inactive: -9.14%. As for `CC(C)Oc1ccc(C(=O)NCC2(N(C)C)CCCCC2)cc1`, the figure is inactive: -3.61%; as for `COc1ccc(Br)c(C(=O)NCC2(N3CCCCC3)CCCCC2)c1`, inactive: -11.6%; as for `COc1cc(C(=O)NCC2(N(C)C)CCCCC2)c([N+](=O)[O-])cc1OC`, active: 69.6%.

On to `CN(C)C1(CNC(=O)c2ccc(Br)cc2)CCCCC1`, for which the activation was inactive: 8.43%. The figure for `O=C(NCC1(N2CCCCC2)CCCCC1)c1cccc(Cl)c1` is inactive: 2.66%; for `COc1ccc(Cl)cc1C(=O)NCC1(N(C)C)CCCCC1` it is inactive: -24.9%; for `COc1cccc(C(=O)NCC2(N3CCCCC3)CCCCC2)c1` it is inactive: -11.2%.
